Target: FAAH (residual C20:4-Gly hydrolase of PM20D1-KO liver membranes) (Mus musculus, UniProt O08914)
Assay: inhibition of C20:4-Gly hydrolysis, LC-MS of arachidonic acid
Details: 100 µM C20:4-Gly, PBS, 1 hr 37°C, 10 min pre-incubation, serine hydrolase inhibitor, covalent

Sequences of proteins named here, by UniProt entry; tags and fusion partners are left off.
UniProt O08914, whole entry: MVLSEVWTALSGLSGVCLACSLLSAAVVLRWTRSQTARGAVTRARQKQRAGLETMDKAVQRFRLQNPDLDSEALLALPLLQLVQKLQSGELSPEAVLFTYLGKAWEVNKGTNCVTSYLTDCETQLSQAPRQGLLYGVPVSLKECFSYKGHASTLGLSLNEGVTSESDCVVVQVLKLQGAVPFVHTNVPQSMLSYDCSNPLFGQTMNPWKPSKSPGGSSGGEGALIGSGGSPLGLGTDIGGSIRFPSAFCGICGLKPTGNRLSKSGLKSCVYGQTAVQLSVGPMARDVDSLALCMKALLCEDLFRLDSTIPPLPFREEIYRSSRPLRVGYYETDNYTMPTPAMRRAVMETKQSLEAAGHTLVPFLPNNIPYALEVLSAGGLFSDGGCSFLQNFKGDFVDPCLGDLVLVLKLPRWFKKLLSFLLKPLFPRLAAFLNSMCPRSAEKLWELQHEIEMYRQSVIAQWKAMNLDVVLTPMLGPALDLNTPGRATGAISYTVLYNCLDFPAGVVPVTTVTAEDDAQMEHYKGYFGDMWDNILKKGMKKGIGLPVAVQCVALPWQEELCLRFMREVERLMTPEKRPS

CCCCC/C=C\C/C=C\C/C=C\C/C=C\CCCCP(=O)(F)OC (stereo not shown)
% inhibition at 10 μM: MAFP completely abolished the residual C20:4-Gly hydrolysis activity

From paper PMC7145423, “Cooperative enzymatic control of N-acyl amino acids by PM20D1 and FAAH” (eLife, 2020)
